# Results reported in patent US6357163B1, “Use of nucleic acid analogues in diagnostics and analytical procedures” (priority 1991, dated 2002).
# Test system: plasmid pT10 (dA10/dT10 tract cloned into the BamHI site in pUC19), BamHI cleavage
# Experiment: Inhibition of restriction enzyme cleavage by PNA
substance,measurement,setting,value
TTT-TTT-TTT-T-Lys-NH2 [H-T10-LysNH2],cleavage by BamHI,pT10 cleaved with BamHI and PvuII in the presence of PNA,inhibited
same,yield of PNA-dsDNA complex formation,plasmid pT10,100%
